According to patent US7700122B1, “Topical compositions comprising an opioid analgesic and an NMDA antagonist” (Memorial Sloan-Kettering Cancer Center, priority 1998, dated 2010):

In the case of [^125I]Morphine [^125I-Morphine], the “radioactivity in blood, brain or spinal cord” value (mouse, in vivo) is reported as “no detectable levels of radioactivity”, the “radioactivity in proximal unexposed tail relative to immersed distal tail” value (mouse, in vivo) is reported as under 1% and the “Radioactivity, Brain” value (tail immersed 3 min in 100 μCi/ml in DMSO, sampled within 5 min) is reported as 55 ± 26 cpm/g.
